Data taken from patent US10118903B2, “Aminotriazole-based KDM1A inhibitors as epigenetic modulators” (MUSC FOUNDATION FOR RESEARCH DEVELOPMENT, priority 2014, dated 2018).

Biological target: T1, human recombinant LSD1 (Homo sapiens, UniProt O60341)
T1 construct: purchased Cayman Chemical Item #700120
Experiment: LSD1 inhibitor screening assay (Cayman Chemical kit, fluorometric)
Format: biochemical
Conditions: 10 μM compound; Chembridge analogues table

“Verlindamycin tetrahydrochloride [Compound 2d, reference compound]” was tested, and the “% inhibition of recombinant LSD1 at 10 μM” value was 62.6%.
